## Measured affinities in a library of Ab-14 heavy chain variants

Values reported by Li et al. 2023, doi:10.1038/s41467-023-39022-2 (FLAb copy).

The target is the same throughout: PDVDLGDISGINAS, from the HR2 region of SARS-CoV-2 spike.

The variants keep the light chain, the linker and the frameworks of Ab-14 (scFv order VH, three GGGGS repeats, VL).
VH: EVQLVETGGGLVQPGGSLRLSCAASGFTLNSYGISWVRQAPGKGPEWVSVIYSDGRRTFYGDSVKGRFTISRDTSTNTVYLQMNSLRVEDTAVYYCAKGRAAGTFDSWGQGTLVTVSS
VL: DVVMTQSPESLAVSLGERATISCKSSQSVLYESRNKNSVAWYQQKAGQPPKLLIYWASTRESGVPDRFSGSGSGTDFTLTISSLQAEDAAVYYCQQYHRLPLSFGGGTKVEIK

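The variants were designed computationally from a first round of random CDR variants and then made and measured. Group labels follow the data file (Ctrl: baseline library sampled from a position-specific scoring matrix, with some repeated check sequences; Rand: our label for a block that the file lists under HC and that is probably the random mutants of the ten best first-round binders; En: ensemble of fine-tuned language models; GP: Gaussian process model; GPLM: also part of the Gaussian process libraries; HC: hill climbing; Gen: genetic algorithm; Gibbs: Gibbs sampling; a sequence that several methods proposed may carry one label only). AlphaSeq pools MATa yeast showing the antibodies with MATalpha yeast showing the peptide. Pairs that bind mate more often; barcode pairs of the diploids are counted by sequencing. Each replicate has its own calibration line, from reference interactions of the BCL2 family. Mating was done six times.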

The parent's heavy chain CDRs are GFTLNSYGIS, VIYSDGRRTFYGDSVK, GRAAGTFDS; each variant's own CDRs replace them letter for letter.
Numbers give log10(Kd / nM), so 0 is 1 nM and 3 is 1 µM. Smaller is tighter.
Averages over replicates are reported, and they cover detected replicates only.
"no signal" marks a missing value. The strain was present, yet no cells mated with the target were sequenced in any replicate, which points to weak or no binding.

| CDR-H1 | CDR-H2 | CDR-H3 | group | mean, log10 nM | detected | empty controls |
|---|---|---|---|---|---|---|
| WFTLNDYGIS | VIYSDGRRTMYIDSVK | GRAAGTFDS | GP_HC | no signal | 0/6 | 0/18 |
| GFTLNEYGIS | VIYSDGRRTFYTDRVK | GRFAGTFDS | GPLM_HC | 0.69 | 3/6 | 0/18 |
| GFKLNSYGIS | VIYSDGRRTFYADSVK | GQLAGTFDS | GP_HC | -0.32 | 6/6 | 0/18 |
| GFTLNSYGIS | VIYSDGRRTFYVDSVK | RHAAGTFDS | Ctrl | no signal | 0/6 | 0/18 |
| GFQLNEYGIS | VIYSDGRRTFYADQVK | GQAAGTFDS | GP_Gibbs | 0.06 | 6/6 | 0/18 |
| GFDLNEYGIS | VIYADGQRTAYTDSVK | GGNAGTFDV | En_Gen | -0.51 | 6/6 | 0/18 |
| GFSLNSYGIS | VIYSDGRRTFYVDSVK | GRTAGTFDQ | GPLM_Gen | 0.19 | 3/6 | 0/18 |
| GFTLNEYGIS | VIYSDGRRTFYGDSVK | GRLAGTFIS | GPLM_HC | 1.25 | 3/6 | 0/18 |
| GFTLNSYGIS | VIYSDGRRTFMGDSVK | GRARGTFDS | Ctrl | no signal | 0/6 | 1/18 |
| GFDLNEYGIS | VIYADGMRTQYIDSVK | GETAGTFDL | En_HC | -0.13 | 6/6 | 0/18 |
| GFDLNEYGIS | VIYADGRRTQYIDSVK | GTVAGTFDS | En_HC | -0.94 | 6/6 | 0/18 |
| GFTLNSYGIS | VIYRDGRRTFYGDSVK | GSAAGWFDS | Ctrl | no signal | 0/6 | 0/18 |
| GFDLNEYGIS | VIYADGRRTFYADSVK | GQVAGTFVS | En_HC | -0.32 | 6/6 | 1/18 |
| GFTLKSYGIS | VIYADGRRTFYGDSVK | GRAAGTFNL | Ctrl | 1.99 | 5/6 | 2/18 |
| GFDLNEYGIS | VIYADGMRTAYADSVK | GENAGTFDQ | En_Gen | 1.77 | 1/6 | 0/18 |
| GFDLNSYGIS | VIYSDGRRTFYSDSVK | GRHAGTFDS | GP_Gibbs | 1.60 | 4/6 | 0/18 |
| GFDLNEYGIS | VIYADGLRTAYADDVK | GNVAGTFDI | En_Gen | no signal | 0/6 | 1/18 |
| GFDLNEYGIS | VIYADGSRKAYADSVK | GNVAGTFDL | En_Gen | -0.25 | 6/6 | 0/18 |
| GFDLDEYGIS | VIYADGMRTYYADSVK | GNNAGTFDV | En_Gen | 1.26 | 2/6 | 0/18 |
| GFNLNEYGIS | VIYADGVRTFYADSVK | GEVAGTFDV | En_HC | -0.49 | 6/6 | 0/18 |
| GYDMEDYGIS | VIYADGSRAAYVDNFK | GELAGTFEM | En_Gibbs | no signal | 0/6 | 0/18 |
| GFTMNSYGIS | VIYSDGRRTFYGDSVK | GSAAGTFDS | Ctrl | 1.37 | 2/6 | 2/18 |
| GFTLNSYGIS | VIYRDGRRTFYNDSVK | GRAAGTKDS | Ctrl | no signal | 0/6 | 0/18 |
| GFTLNSYGVS | VIYADGRRTFYDDSVK | GRAAGTFDS | Ctrl | -0.09 | 6/6 | 0/18 |
| GFTLSDYGIS | VEYSDGTYTQYIDSVK | GRAAGTFDS | Rand | 1.21 | 1/6 | 0/18 |
| GQKLNNYGIS | VIYADGRRTFYGDSVK | GRGAGIFDS | Ctrl | no signal | 0/6 | 0/18 |
| GFDLESYGIS | VIYADGRRTFYSDSVK | GDNAGTFDI | En_HC | 0.00 | 6/6 | 0/18 |
| GFTLNSYGIS | VIYSDGCRTFYIDSVK | GNAAGTFDS | GP_Gibbs | 1.39 | 3/6 | 2/18 |
| GFDLNEYGIS | VIYADGMRTFYADSVK | GQLAGTFDS | En_HC | -0.37 | 6/6 | 0/18 |
| GFGLNSYGIS | VIYSDGRRTFYIDSVK | GRQAGTFDS | GP_Gen | -0.71 | 6/6 | 0/18 |
| GFTLNEYSIS | VIYSDGRRCFYGDSVK | GRAALTFDS | Ctrl | 0.59 | 2/6 | 0/18 |
| GFTLESYGIS | VIYSDGRRTFYADSVK | GHAAGTFDT | GP_Gibbs | 0.03 | 6/6 | 0/18 |
| GFDLDEYGIS | VIYADGKRTAYADSVK | GQNAGTFDI | En_Gen | -0.06 | 6/6 | 0/18 |
| GFELNSYGIS | VIYSDGRRTFYGDSVK | GFVAGTFDS | Ctrl | 0.48 | 6/6 | 0/18 |
| GFSLNSYGIS | VIYADGRRTFYGDQVK | GRAAGTFKS | GP_HC | no signal | 0/6 | 0/18 |
| GFDLNEYGIS | VIYADGQRTVYADSVK | GENAGTFDL | En_Gen | -0.32 | 6/6 | 1/18 |
| GFTMNKYGIS | VIYSDGRRTFYGDSVK | GRAAGTFDS | Ctrl | no signal | 0/6 | 0/18 |
| GFDLNEYGVS | VIYADGIRRAYAANFK | GVTAGGLDI | En_Gibbs | no signal | 0/6 | 1/18 |
| GFTLDSYGIS | VIYSDGRRTFYGDSVK | GRVAGTFDS | GPLM_Gen | 0.41 | 6/6 | 0/18 |
| GFSLNEYGIS | VIYSDGKRTFYADSVK | GRTAGTFDS | GPLM_Gen | -0.25 | 6/6 | 0/18 |
| TFTLNSYGIS | VIYSDGRRVFYGDSVK | GRAAGTFDS | Ctrl | no signal | 0/6 | 0/18 |
| GFDLNSYGIS | VIYSDGKRTFYGDRVK | GRTAGTFDS | GPLM_Gibbs | -0.12 | 6/6 | 1/18 |
| GFTLSSYGIS | VIYSDGRRTFYGDSVK | GDAAGTFDS | Ctrl | 1.33 | 6/6 | 1/18 |
| GFELNSYGIS | VIYSDGRRTFYGDSVK | GRIAGTFDL | GP_Gibbs | 1.34 | 5/6 | 0/18 |
| GFDLNEYGIS | VIYADGRRTAYIDSVK | GHTAGTFDS | En_HC | -0.89 | 6/6 | 0/18 |
| GFDINEYGIS | VIYADGMRTKYSESVK | GTGDGSFNL | En_Gibbs | no signal | 0/6 | 0/18 |
| GFTLNSYGIS | VMYSDGRRTEYGDSVK | GRVAGTFDK | Ctrl | 0.37 | 6/6 | 0/18 |
| GFDLNEYGIS | VIYADGKRTAYIDSVK | GENAGTFDM | En_Gen | -0.75 | 6/6 | 0/18 |
| KFSLNEYGIS | VIYSDGRRTFYGDSVK | GRNAGTFDS | GP_Gen | 1.55 | 1/6 | 1/18 |
| GFDLNEYGIS | VIYADGKRKAYADSVK | GNQAGTFDV | En_Gen | -0.25 | 6/6 | 0/18 |
| GFDLNTYGIS | VIYSDGMRTFYHDSVK | GRTAGTFDS | GP_Gibbs | -0.06 | 6/6 | 1/18 |
| GFDLNEYGIS | VIYADGSRTAYADSVK | GQNAGTFDI | En_Gen | -0.45 | 6/6 | 0/18 |
| GFTLNSYGIS | VIYSDGRRTFYEDDVK | GREAGTFDL | Ctrl | 1.46 | 6/6 | 0/18 |
| GFTLNSYGIS | VIYSDGRRTAYGDSVK | GRTAGTFDS | GPLM_Gen | 1.50 | 6/6 | 0/18 |
| GFDLNEYGIS | VIYADGMRTVYADSVK | GEAAGTFDS | En_HC | -0.33 | 6/6 | 0/18 |
| GFNLNEYGIS | VIYADGKRTFYADSVK | GEIAGTFDF | En_HC | -0.30 | 6/6 | 0/18 |
| GFNLNSYGIS | VIYSDGRRTFYSDSVK | GEAAGTFDS | GPLM_Gen | no signal | 0/6 | 0/18 |
| GFDLDEYGIS | VIYADGKRTFYADSVK | GELAGTFDS | En_HC | -0.34 | 6/6 | 0/18 |
| GFDIQEYGIS | VIYADGNRSAYIDNVK | GDTGSSFLE | En_Gibbs | no signal | 0/6 | 0/18 |
| GFDLNEYGIS | VIYADGKRTFYSDSVK | GNIAGTFDV | En_HC | -1.00 | 6/6 | 0/18 |
| GFTLNSYGVS | VIYSDGKRTFYGDSVK | GMAAGTFDS | Ctrl | 2.04 | 2/6 | 0/18 |
| GFTLNSYGIS | VIYSDGMRTFYADAVK | GSAAGTFDS | Ctrl | 0.84 | 6/6 | 0/18 |
| GFDLNEYGIS | VIYADGMRTMYADSVK | GENAGTFDV | En_Gen | -0.30 | 6/6 | 0/18 |
| GFDLNEYGIS | VIYADGQRTAYSDSVK | GNTAGTFDV | En_Gen | 0.29 | 6/6 | 0/18 |

The 9 strongest on average among those seen in every replicate, once more:

| CDR-H1 | CDR-H2 | CDR-H3 | group | mean, log10 nM | detected | empty controls |
|---|---|---|---|---|---|---|
| GFDLNEYGIS | VIYADGKRTFYSDSVK | GNIAGTFDV | En_HC | -1.00 | 6/6 | 0/18 |
| GFDLNEYGIS | VIYADGRRTQYIDSVK | GTVAGTFDS | En_HC | -0.94 | 6/6 | 0/18 |
| GFDLNEYGIS | VIYADGRRTAYIDSVK | GHTAGTFDS | En_HC | -0.89 | 6/6 | 0/18 |
| GFDLNEYGIS | VIYADGKRTAYIDSVK | GENAGTFDM | En_Gen | -0.75 | 6/6 | 0/18 |
| GFGLNSYGIS | VIYSDGRRTFYIDSVK | GRQAGTFDS | GP_Gen | -0.71 | 6/6 | 0/18 |
| GFDLNEYGIS | VIYADGQRTAYTDSVK | GGNAGTFDV | En_Gen | -0.51 | 6/6 | 0/18 |
| GFNLNEYGIS | VIYADGVRTFYADSVK | GEVAGTFDV | En_HC | -0.49 | 6/6 | 0/18 |
| GFDLNEYGIS | VIYADGSRTAYADSVK | GQNAGTFDI | En_Gen | -0.45 | 6/6 | 0/18 |
| GFDLNEYGIS | VIYADGMRTFYADSVK | GQLAGTFDS | En_HC | -0.37 | 6/6 | 0/18 |

The authors averaged sequences with at least three values out of six and counted those with two or fewer as poor binders.
As a blank, each scFv also met three strains without target: over all heavy chain designs, 1% of these pairings were detected, typically at 2.08 and seldom below 0.84. Also given: how often the same scFv was detected with the empty control strains.
Of ten entries with the parent sequence, four were seen in most replicates (averages 0.34 to 2.37), three in one and three in none, so single entries are noisy.
A sequence measured in both rounds can read differently, since the two assays cover different ranges.